# Tested on: Bacillus globigii
# Assay: Surviving CFU/ml of Bacillus globigii after exposure to PAB
# Conditions: 15 minutes exposure to 1 mg/ml PAB; starting concentration 8.5×10^4 CFU/ml (FIG. 1)
substance,measurement,value
acetyl peroxyborate,final concentration of surviving colony forming units per milliliter,< 300 CFU/ml

# Source: patent US20060073067A1, “Peracid-based large-area decontamination” (published 2006)
